The assay addresses Serotonin 2 (5-HT2) receptor (Rattus norvegicus, UniProt P30994+P08909+P14842). In words: Inhibition of [3H]spiperone binding to 5-hydroxytryptamine 2 receptor from rat cortical membranes. Type of assay: cell membranes, Membrane.

Amino acid sequences for entries named in this document (tags omitted). A change or cut given only in a name is not applied to a line headed by its entry.
UniProt P30994: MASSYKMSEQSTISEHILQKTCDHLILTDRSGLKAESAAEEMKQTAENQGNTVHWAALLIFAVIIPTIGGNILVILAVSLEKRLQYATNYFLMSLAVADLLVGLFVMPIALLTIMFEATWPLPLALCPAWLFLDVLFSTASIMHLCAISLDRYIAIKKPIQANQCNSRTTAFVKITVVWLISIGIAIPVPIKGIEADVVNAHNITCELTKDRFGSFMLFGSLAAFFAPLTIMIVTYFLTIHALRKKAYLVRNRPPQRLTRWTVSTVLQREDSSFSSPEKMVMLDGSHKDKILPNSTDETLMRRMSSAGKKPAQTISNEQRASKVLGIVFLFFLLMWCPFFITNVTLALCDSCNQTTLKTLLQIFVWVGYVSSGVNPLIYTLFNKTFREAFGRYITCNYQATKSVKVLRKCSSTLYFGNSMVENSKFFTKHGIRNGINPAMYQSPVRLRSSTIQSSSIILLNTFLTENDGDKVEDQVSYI
UniProt P08909: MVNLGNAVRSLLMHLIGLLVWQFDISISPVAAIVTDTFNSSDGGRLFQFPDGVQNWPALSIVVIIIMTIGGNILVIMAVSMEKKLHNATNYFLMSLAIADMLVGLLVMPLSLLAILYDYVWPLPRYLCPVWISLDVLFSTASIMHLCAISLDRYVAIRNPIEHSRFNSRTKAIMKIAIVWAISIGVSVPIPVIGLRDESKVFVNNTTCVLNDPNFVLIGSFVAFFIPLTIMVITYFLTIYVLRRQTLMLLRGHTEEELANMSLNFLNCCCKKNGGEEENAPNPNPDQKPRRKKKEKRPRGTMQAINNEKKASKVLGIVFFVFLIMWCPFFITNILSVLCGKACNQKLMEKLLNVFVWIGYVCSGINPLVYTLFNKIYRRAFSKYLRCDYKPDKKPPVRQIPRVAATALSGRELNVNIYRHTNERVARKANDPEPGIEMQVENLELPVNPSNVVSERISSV
UniProt P14842: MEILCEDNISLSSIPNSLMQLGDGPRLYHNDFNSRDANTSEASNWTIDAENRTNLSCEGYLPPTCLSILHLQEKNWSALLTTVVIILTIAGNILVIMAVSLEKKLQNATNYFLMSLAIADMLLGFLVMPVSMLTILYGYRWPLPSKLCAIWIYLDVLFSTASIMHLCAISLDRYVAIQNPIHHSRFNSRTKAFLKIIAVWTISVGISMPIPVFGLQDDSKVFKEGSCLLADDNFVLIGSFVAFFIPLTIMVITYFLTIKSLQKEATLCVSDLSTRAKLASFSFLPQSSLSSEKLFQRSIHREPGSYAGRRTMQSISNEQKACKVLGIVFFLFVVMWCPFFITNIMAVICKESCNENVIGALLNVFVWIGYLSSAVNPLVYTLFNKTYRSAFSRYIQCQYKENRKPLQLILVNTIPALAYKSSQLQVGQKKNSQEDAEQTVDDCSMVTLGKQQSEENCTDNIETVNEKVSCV

Structures are written as SMILES.

The values below come from ChEMBL document CHEMBL1124016, “Antihypertensive activity in a series of 1-piperazino-3-phenylindans with potent 5-HT2-antagonistic activity” (J Med Chem, 1988).

`Cc1nc2sccn2c(=O)c1CCN1CCC(=C(c2ccc(F)cc2)c2ccc(F)cc2)CC1` [RITANSERIN] had an IC50 of 4.4 nM.

A word on the IC50: it is the concentration at which inhibition is half-maximal.
